In patent US12171806B2, “Therapeutic regimens and methods for lowering blood glucose and/or body weight using GLP-1R and GCGR balanced agonists” (priority 2021, dated 2024):

Experiment: Phase 1 MAD study of ALT-801: adverse events (TEAEs), safety overview

Compound: CC[C@H](C)[C@H](NC(=O)[C@H](Cc1ccccc1)NC(=O)[C@H](CCC(=O)O)NC(=O)[C@@H]1CCCCNC(=O)CC[C@H](NC(=O)[C@H](CC(=O)O)NC(=O)[C@H](CC(C)C)NC(=O)[C@H](Cc2ccc(O)cc2)NC(=O)[C@H](CCCCN)NC(=O)[C@H](CO)NC(=O)[C@H](Cc2ccc(O)cc2)NC(=O)[C@H](CC(=O)O)NC(=O)[C@H](CO)NC(=O)[C@@H](NC(=O)[C@H](Cc2ccccc2)NC(=O)[C@@H](NC(=O)CNC(=O)[C@H](CCC(N)=O)NC(=O)C(C)(C)NC(=O)[C@@H](N)Cc2c[nH]cn2)[C@@H](C)O)[C@@H](C)O)C(=O)N[C@@H](CCCCNC(=O)[C@H]2O[C@@H](OCCCCCCCCCCCCCCCCCC(=O)O)[C@H](O)[C@@H](O)[C@@H]2O)C(=O)N[C@@H](C)C(=O)N[C@@H](C)C(=O)N1)C(=O)N[C@@H](CCC(N)=O)C(=O)N[C@@H](Cc1c[nH]c2ccccc12)C(=O)N[C@@H](CC(C)C)C(=O)N[C@@H](CC(C)C)C(=O)N[C@@H](CCC(N)=O)C(=O)N[C@H](C(N)=O)[C@@H](C)O [ALT-801, pemvidutide]
- TEAE Injection site dermatitis; Mild; % (Overall (N = 27)): (3.7%)
- TEAE Injection site dermatitis; Mild; n (Overall (N = 27)): 1
- TEAE Injection site dermatitis; Moderate; % (Overall (N = 27)): (0.0%)
- TEAE Injection site dermatitis; Moderate; n (Overall (N = 27)): 0
- TEAE Injection site dermatitis; PLT; % (Overall (N = 27)): (0.0%)
- TEAE Injection site dermatitis; PLT; n (Overall (N = 27)): 0
- TEAE Injection site dermatitis; Severe; % (Overall (N = 27)): (0.0%)
- TEAE Injection site dermatitis; Severe; n (Overall (N = 27)): 0
- TEAE Nausea; Mild; % (Overall (N = 27)): (40.7%)
- TEAE Nausea; Mild; n (Overall (N = 27)): 11
- TEAE Nausea; Moderate; % (Overall (N = 27)): (25.9%)
- TEAE Nausea; Moderate; n (Overall (N = 27)): 7
- TEAE Nausea; PLT; % (Overall (N = 27)): (0.0%)
- TEAE Nausea; PLT; n (Overall (N = 27)): 0
- TEAE Nausea; Severe; % (Overall (N = 27)): (0.0%)
- TEAE Nausea; Severe; n (Overall (N = 27)): 0
- TEAE Palpitation; Mild; % (Overall (N = 27)): (3.7%)
- TEAE Palpitation; Mild; n (Overall (N = 27)): 1
- TEAE Palpitation; Moderate; % (Overall (N = 27)): (0.0%)
- TEAE Palpitation; Moderate; n (Overall (N = 27)): 0
- TEAE Palpitation; PLT; % (Overall (N = 27)): (0.0%)
- TEAE Palpitation; PLT; n (Overall (N = 27)): 0
- TEAE Palpitation; Severe; % (Overall (N = 27)): (0.0%)
- TEAE Palpitation; Severe; n (Overall (N = 27)): 0
- TEAE Peripheral swelling; Mild; % (Overall (N = 27)): (0.0%)
- TEAE Peripheral swelling; Mild; n (Overall (N = 27)): 0
- TEAE Peripheral swelling; Moderate; % (Overall (N = 27)): (0.0%)
- TEAE Peripheral swelling; Moderate; n (Overall (N = 27)): 0
- TEAE Peripheral swelling; PLT; % (Overall (N = 27)): (0.0%)
- TEAE Peripheral swelling; PLT; n (Overall (N = 27)): 0
- TEAE Peripheral swelling; Severe; % (Overall (N = 27)): (0.0%)
- TEAE Peripheral swelling; Severe; n (Overall (N = 27)): 0
- TEAE Rectal haemorrhage; Mild; % (Overall (N = 27)): (7.4%)
- TEAE Rectal haemorrhage; Mild; n (Overall (N = 27)): 2
- TEAE Rectal haemorrhage; Moderate; % (Overall (N = 27)): (0.0%)
- TEAE Rectal haemorrhage; Moderate; n (Overall (N = 27)): 0
- TEAE Rectal haemorrhage; PLT; % (Overall (N = 27)): (0.0%)
- TEAE Rectal haemorrhage; PLT; n (Overall (N = 27)): 0
- TEAE Rectal haemorrhage; Severe; % (Overall (N = 27)): (0.0%)
- TEAE Rectal haemorrhage; Severe; n (Overall (N = 27)): 0
- TEAE Tachycardia; Mild; % (Overall (N = 27)): (3.7%)
- TEAE Tachycardia; Mild; n (Overall (N = 27)): 1
- TEAE Tachycardia; Moderate; % (Overall (N = 27)): (0.0%)
- TEAE Tachycardia; Moderate; n (Overall (N = 27)): 0
- TEAE Tachycardia; PLT; % (Overall (N = 27)): (0.0%)
- TEAE Tachycardia; PLT; n (Overall (N = 27)): 0
- TEAE Tachycardia; Severe; % (Overall (N = 27)): (0.0%)
- TEAE Tachycardia; Severe; n (Overall (N = 27)): 0
- TEAE Tooth impacted; Mild; % (Overall (N = 27)): (0.0%)
- TEAE Tooth impacted; Mild; n (Overall (N = 27)): 0
- TEAE Tooth impacted; Moderate; % (Overall (N = 27)): (0.0%)
- TEAE Tooth impacted; Moderate; n (Overall (N = 27)): 0
- TEAE Tooth impacted; PLT; % (Overall (N = 27)): (0.0%)
- TEAE Tooth impacted; PLT; n (Overall (N = 27)): 0
- TEAE Tooth impacted; Severe; % (Overall (N = 27)): (0.0%)
- TEAE Tooth impacted; Severe; n (Overall (N = 27)): 0
- TEAE Toothache; Mild; % (Overall (N = 27)): (3.7%)
- TEAE Toothache; Mild; n (Overall (N = 27)): 1
- TEAE Toothache; Moderate; % (Overall (N = 27)): (0.0%)
- TEAE Toothache; Moderate; n (Overall (N = 27)): 0
- TEAE Toothache; PLT; % (Overall (N = 27)): (0.0%)
- TEAE Toothache; PLT; n (Overall (N = 27)): 0
- TEAE Toothache; Severe; % (Overall (N = 27)): (0.0%)
- TEAE Toothache; Severe; n (Overall (N = 27)): 0
- TEAE Vessel puncture site pain; Mild; % (Overall (N = 27)): (3.7%)
- TEAE Vessel puncture site pain; Mild; n (Overall (N = 27)): 1
- TEAE Vessel puncture site pain; Moderate; % (Overall (N = 27)): (0.0%)
- TEAE Vessel puncture site pain; Moderate; n (Overall (N = 27)): 0
- TEAE Vessel puncture site pain; PLT; % (Overall (N = 27)): (0.0%)
- TEAE Vessel puncture site pain; PLT; n (Overall (N = 27)): 0
- TEAE Vessel puncture site pain; Severe; % (Overall (N = 27)): (0.0%)
- TEAE Vessel puncture site pain; Severe; n (Overall (N = 27)): 0
- TEAE Vomiting; Mild; % (Overall (N = 27)): (25.9%)
- TEAE Vomiting; Mild; n (Overall (N = 27)): 7
- TEAE Vomiting; Moderate; % (Overall (N = 27)): (14.8%)
- TEAE Vomiting; Moderate; n (Overall (N = 27)): 4
- TEAE Vomiting; PLT; % (Overall (N = 27)): (0.0%)
- TEAE Vomiting; PLT; n (Overall (N = 27)): 0
- TEAE Vomiting; Severe; % (Overall (N = 27)): (0.0%)
- TEAE Vomiting; Severe; n (Overall (N = 27)): 0
- TEAE Cough, maximum severity Mild, subjects % (Overall ALT-801 (N = 27)): (3.7%)
- TEAE Cough, maximum severity Mild, subjects n (Overall ALT-801 (N = 27)): 1
- TEAE Cough, maximum severity Moderate, subjects % (Overall ALT-801 (N = 27)): (0.0%)
- TEAE Cough, maximum severity Moderate, subjects n (Overall ALT-801 (N = 27)): 0
- TEAE Cough, maximum severity PLT, subjects % (Overall ALT-801 (N = 27)): (0.0%)
- TEAE Cough, maximum severity PLT, subjects n (Overall ALT-801 (N = 27)): 0
- TEAE Cough, maximum severity Severe, subjects % (Overall ALT-801 (N = 27)): (0.0%)
- TEAE Cough, maximum severity Severe, subjects n (Overall ALT-801 (N = 27)): 0
- TEAE Dermatitis contact, maximum severity Mild, subjects % (Overall ALT-801 (N = 27)): (14.8%)
- TEAE Dermatitis contact, maximum severity Mild, subjects n (Overall ALT-801 (N = 27)): 4
